Data reported in ChEMBL document CHEMBL1938393, “Multiparameter exploration of piperazine derivatives as δ-opioid receptor agonists for CNS indications” (Bioorg Med Chem Lett, 2012).

Sequences of proteins named here, by UniProt entry; tags and fusion partners are left off.
UniProt P41143, whole entry: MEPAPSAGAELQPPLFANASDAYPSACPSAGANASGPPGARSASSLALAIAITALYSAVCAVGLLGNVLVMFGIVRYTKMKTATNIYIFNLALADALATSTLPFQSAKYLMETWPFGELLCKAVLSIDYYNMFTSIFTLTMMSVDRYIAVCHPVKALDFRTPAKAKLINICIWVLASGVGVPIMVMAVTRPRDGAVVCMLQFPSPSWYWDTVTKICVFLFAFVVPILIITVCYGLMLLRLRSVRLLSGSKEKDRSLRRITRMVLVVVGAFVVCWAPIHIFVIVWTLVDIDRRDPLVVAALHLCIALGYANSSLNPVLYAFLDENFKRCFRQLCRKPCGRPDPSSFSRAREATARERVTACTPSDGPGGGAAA

Molecular target: Delta-type opioid receptor (Homo sapiens, UniProt P41143)
Experiment: Displacement of [I125]deltorphin from delta-opioid receptor overexpressed in human HEK293 cells
Type: cell-based

Question: How did the IC50 turn out when `CCOC(=O)Nc1ccccc1[C@@H](c1ccc(C(=O)N(CC)CC)cc1)N1CCN(Cc2cscn2)CC1` was run?
Answer: 0.78 nM
